Test results published in patent US20050182029A1, “Metformin salts of lipophilic acids” (Sonus Pharmaceuticals, Inc., priority 2002, published 2005).

Conditions: rat, in vivo

**Q.** Which “colonic absorption compared to metformin hydrochloride” value does the source give for metformin tocopherol phosphate (1:2) here?
**A.** The value was “absorbed much faster and more extensively than metformin hydrochloride”.
